Test results from patent publication US20230340011A1 (Asteroid Therapeutics, priority 2022, published 2023).
pEC50: −log10 of the molar value. Read-outs that look alike come from different tables or passages of the source.

By UniProt entry, the sequences of proteins in these tests, tags left out.
UniProt P55055, whole entry: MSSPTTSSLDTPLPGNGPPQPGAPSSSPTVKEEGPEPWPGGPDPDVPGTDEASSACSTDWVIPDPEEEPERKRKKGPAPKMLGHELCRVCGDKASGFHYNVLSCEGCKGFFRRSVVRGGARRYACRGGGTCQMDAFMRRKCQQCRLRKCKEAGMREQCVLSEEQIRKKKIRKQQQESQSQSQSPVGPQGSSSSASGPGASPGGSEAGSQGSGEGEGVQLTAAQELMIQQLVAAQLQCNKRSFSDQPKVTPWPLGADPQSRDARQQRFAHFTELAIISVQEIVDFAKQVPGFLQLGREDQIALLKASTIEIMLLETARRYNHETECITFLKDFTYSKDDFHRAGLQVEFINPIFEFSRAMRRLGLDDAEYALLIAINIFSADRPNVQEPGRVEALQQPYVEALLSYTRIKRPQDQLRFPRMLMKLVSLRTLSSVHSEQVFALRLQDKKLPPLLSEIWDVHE

Target: LXRβ (Homo sapiens (Human), UniProt P55055)
Test: In vitro assay LXRβ: PathHunter NHR CHO cells, LXRβ / Steroid Receptor Co-activator Peptide enzyme fragment complementation
Type: cell-based
Description: PathHunter NHR CHO cells stably transfected with tagged full-length human LXRβ and a nuclear fusion protein containing Steroid Receptor Co-activator Peptide (SRCP). The full-length human LXRβ was tagged with the ProLink™ component of the DiscoverX Enzyme Fragment Complementation (EFC) system and the SRCP domain is fused to the enzyme acceptor component (EA) expressed in the nucleus. Cells were seeded in a total volume of 20 μL into white walled, 384-well microplates and incubated at 37° C. overnight prior to testing. Assay media contained charcoal-dextran filtered serum to reduce the level of hormones present. Final assay vehicle concentration was 1%. […] Microplates were read following signal generation with a PerkinElmer Envision instrument for chemiluminescent signal detection.

| SMILES | pEC50 | pEC50 (read-out: LXRβ PPI) |
| --- | --- | --- |
| CC(C)CC1(O)CCN(C(=O)CC[C@@H](C)[C@H]2CC[C@H]3[C@@H]4CC=C5C[C@@H](O)CC[C@]5(C)[C@H]4CC[C@]23C)CC1 [Example 93, (R)-4-((3S,8S,9S,10R,13R,14S,17R)-3-hydroxy-10,13-dimethyl-2,3,4,7,8,9,10,11,12,13,14,15,16,17-tetradecahydro-1H-cyclopenta[a]phenanthren-17-yl)-1-(4-hydroxy-4-isobutylpiperidin-1-yl) pentan-1-one] | > 6.60 |  |
| C[C@H](CCC(=O)N1CCC(O)(C(F)F)CC1)[C@H]1CC[C@H]2[C@@H]3CC=C4C[C@@H](O)CC[C@]4(C)[C@H]3CC[C@]12C [Example 128, (R)-1-(4-(difluoromethyl)-4-hydroxypiperidin-1-yl)-4-((3S,8S,9S,10R,13R,14S,17R)-3-hydroxy-10,13-dimethyl-2,3,4,7,8,9,10,11,12,13,14,15,16,17-tetradecahydro-1H-cyclopenta[a]phenanthren-17-yl)pentan-1-one] | > 6.60 |  |
| CC[C@H]1NC[C@@H]2CON(C(=O)CC[C@@H](C)[C@H]3CC[C@H]4[C@@H]5CC=C6C[C@@H](O)CC[C@]6(C)[C@H]5CC[C@]34C)[C@@H]21 [Example 47, (R)-1-((3aS,6R,6aS)-6-ethylhexahydro-1H-pyrrolo[3,4-c]isoxazol-1-yl)-4-((3S,8S,9S,10R,13R,14S,17R)-3-hydroxy-10,13-dimethyl-2,3,4,7,8,9,10,11,12,13,14,15,16,17-tetradecahydro-1H-cyclopenta[a]phenanthren-17-yl)pentan-1-one] | 5.00 to 6.00 |  |
| CC[C@@H]1NC[C@@H]2CON(C(=O)CC[C@@H](C)[C@H]3CC[C@H]4[C@@H]5CC=C6C[C@@H](O)CC[C@]6(C)[C@H]5CC[C@]34C)[C@@H]21 [Example 48, (R)-1-((3aS,6S,6aS)-6-ethylhexahydro-1H-pyrrolo[3,4-c]isoxazol-1-yl)-4-((3S,8S,9S,10R,13R,14S,17R)-3-hydroxy-10,13-dimethyl-2,3,4,7,8,9,10,11,12,13,14,15,16,17-tetradecahydro-1H-cyclopenta[a]phenanthren-17-yl)pentan-1-one] | < 5.00 |  |
| C[C@H](CCC(=O)N1CCC(O)(CC(F)(F)F)CC1)[C@H]1CC[C@H]2[C@@H]3CC=C4C[C@@H](O)CC[C@]4(C)[C@H]3CC[C@]12C [Example 152, (R)-4-((3S,8S,9S,10R,13R,14S,17R)-3-hydroxy-10,13-dimethyl-2,3,4,7,8,9,10,11,12,13,14,15,16,17-tetradecahydro-1H-cyclopenta[a]phenanthren-17-yl)-1-(4-hydroxy-4-(2,2,2-trifluoroethyl)piperidin-1-yl) pentan-1-one] |  | > 6.60 |
| COCCOC(=O)N1CCN(C(=O)CC[C@@H](C)[C@H]2CC[C@H]3[C@@H]4CC=C5C[C@@H](O)CC[C@]5(C)[C@H]4CC[C@]23C)CC1 [Example 280, 2-hydroxyethyl 4-[(4R)-4-[(1R,3aS,3bS,7S,9aR,9bS,11aR)-7-hydroxy-9a,11a-dimethyl-1H,2H,3H,3aH,3bH,4H,6H,7H,8H,9H,9aH,9bH,10H,11H,11aH-cyclopenta[a]phenanthren-1-yl]pentanoyl]piperazine-1-carboxylate] | < 5.00 |  |
| CON(C(=O)CC[C@@H](C)[C@H]1CC[C@H]2[C@@H]3CC=C4C[C@@H](O)CC[C@]4(C)[C@H]3CC[C@]12C)C1CC1 [Example 36, (R)—N-cyclopropyl-4-((3S,8S,9S,10R,13R,14S,17R)-3-hydroxy-10,13-dimethyl-2,3,4,7,8,9,10,11,12,13,14,15,16,17-tetradecahydro-1H-cyclopenta[a]phenanthren-17-yl)-N-methoxypentanamide] | > 6.60 |  |
| CCN(CC)C(=O)C(=O)O[C@@H](C)[C@H]1CC[C@H]2[C@@H]3CC=C4C[C@@H](O)CC[C@]4(C)[C@H]3CC[C@]12C [Example 154, (1S)-1-[(1S,3aS,3bS,7S,9aR,9bS,11aS)-7-hydroxy-9a,11a-dimethyl-1H,2H,3H,3aH,3bH,4H,6H,7H,8H,9H,9aH,9bH,10H,11H,11aH-cyclopenta[a]phenanthren-1-yl]ethyl (diethylcarbamoyl)formate] |  | > 6.60 |
